The test system of one assay is B. subtilis. The assay is described as follows: killing of bacteria by addition of hemin. The note with it: oxygen required.
Assay [1] has as its system other gram positive bacteria. The assay is described as follows: killing of bacteria by addition of hemin. As to conditions: oxygen required.
Another assay has as its system bacteria. Nature of the assay: bacteriocidal effect of hemin and analogues, bacteria not specified. As to conditions: bacteriocidal quantities, absence of oxygen.

Turning to hemin, the killing of bacteria result (with B. subtilis; in assay [1]) was “has been demonstrated” each time. The damage to bacteria entry with bacteria is reported as “did not damage bacteria”.
